Target: B7-1/CD28 (Homo sapiens, UniProt P33681)
Assay: CD28/B7-1 ELISA (B7-1/CD28 binding inhibition)
Conditions: read-out: B7-1/CD28 Inhibition IC50; CD28-Fc coated wells; B7-1-Fc-biotin/streptavidin-alkaline phosphatase detection complex; 1% DMSO
Description: Evaluation of B7-1/CD28 Binding Inhibition for Test Compounds
Wells are coated with 300 ng CD28-Fc in carbonate buffer (pH 9.4) overnight at 4° C., blocked with 1% bovine serum albumin in tris-buffered saline (TBS) for 1 h at 22° C. and washed 3 times in TBS prior to assay. The detection complex is formed as follows: B7-1-Fc-biotin, prepared using NHS-LC-biotin (Pierce #21335) according to the manufacturers instructions (4.1 moles biotinimole Fc), is added at 0.8 ug/ml to streptavidin-alkaline phosphatase (Caltag Sa1008) at 1:1000 in TBS. A solution of test compound in dimethylsulfoxide (1% final) are added to this complex and incubated 30 min at 22° C. Detection complex (+/−inhibitors) is then added to the CD28 coated wells for 25 min at 22° C., washed 5 times with TBS, developed with the colorimetric substrate pNPP (Pierce #34045) in diethanolamine/MgCl2 buffer (pH 9.5) and read at 405 nm. The inhibition constant (IC50) is calculated by subtracting background binding and comparing to uninhibited (DMSO alone) controls. The inhibition constant represents the concentration of test compound required to achieve 50% inhibition.

Sequences of proteins named here, by UniProt entry; tags and fusion partners are left off. Residues count along the entry.
UniProt P33681, 35-242 limits assumed: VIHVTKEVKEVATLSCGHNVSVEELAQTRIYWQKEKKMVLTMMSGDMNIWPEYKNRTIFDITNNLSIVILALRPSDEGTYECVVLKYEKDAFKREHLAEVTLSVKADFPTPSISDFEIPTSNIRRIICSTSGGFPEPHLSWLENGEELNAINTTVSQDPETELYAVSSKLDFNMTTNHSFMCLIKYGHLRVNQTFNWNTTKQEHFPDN

Row | SMILES | IC50 [nM]
1 | COC(=O)c1cccc(NC(=O)c2ccc(-n3[nH]c4c(c(-c5cccc(C(F)(F)F)c5)nc5c4cnn5C)c3=O)cc2)c1 [Example 42] | 73
2 | Cn1ncc2c3[nH]n(-c4ccc(F)c(C(=O)Nc5ccc(O)cc5)c4)c(=O)c3c(-c3cccc(C(F)(F)F)c3)nc21 | 280
3 | CC(O)c1cccc(NC(=O)c2ccc(-n3[nH]c4c(c(-c5cccc(C(F)(F)F)c5)nc5c4cnn5C)c3=O)cc2Cl)c1 (stereo not drawn) | 550
4 | Cn1ncc2c3[nH]n(-c4ccc(C(=O)Nc5ccc(O)cc5)c(F)c4)c(=O)c3c(-c3cccc(C(F)(F)F)c3)nc21 | 31
5 | Cn1ncc2c3[nH]n(-c4ccc(C(=O)Nc5ccc(CCO)cc5)c(F)c4)c(=O)c3c(-c3cccc(C(F)(F)F)c3)nc21 | 64
6 | Cn1ncc2c3[nH]n(-c4ccc(C(=O)N5CCOCC5)c(Cl)c4)c(=O)c3c(-c3cccc(C(F)(F)F)c3)nc21 | 84

— patent US6734190B2, “Dihydrodipyrazolopyridinylbenzamide and -sulfonamide inhibitors of B7-1” (Wyeth, priority 2002, dated 2004)
